For the assay, the target named is T1, F2R (Homo sapiens, UniProt P25116).
T1 sequence (P25116 1-425): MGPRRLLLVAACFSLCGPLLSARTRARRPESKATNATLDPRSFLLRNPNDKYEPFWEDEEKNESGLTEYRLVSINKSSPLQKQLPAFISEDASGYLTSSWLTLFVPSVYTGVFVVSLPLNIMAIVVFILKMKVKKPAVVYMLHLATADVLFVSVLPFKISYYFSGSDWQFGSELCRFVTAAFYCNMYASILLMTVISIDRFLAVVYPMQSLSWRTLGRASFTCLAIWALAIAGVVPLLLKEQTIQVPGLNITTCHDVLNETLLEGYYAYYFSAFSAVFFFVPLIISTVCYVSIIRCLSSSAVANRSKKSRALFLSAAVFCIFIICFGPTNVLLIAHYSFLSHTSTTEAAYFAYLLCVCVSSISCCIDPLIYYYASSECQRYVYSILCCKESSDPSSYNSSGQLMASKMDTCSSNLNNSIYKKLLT
Kind of assay: cell-based.

As usually defined, the EC50 is the midpoint of the concentration-response curve. Read a low EC50 as higher potency in that assay.

For the compound `CC(C)C[C@H](NC(=O)[C@H](CC(C)C)NC(=O)[C@H](Cc1ccccc1)NC(=O)[C@@H](N)[C@@H](C)O)C(=O)N[C@@H](CCCNC(=N)N)C(N)=O` [TFLLR-NH2], the midpoint of the response, the EC50, lay at 12.4 µM.

Source of the values: publication PMC6706627, “Mapping Interactions of Microbial Metabolites with Human G-Protein-Coupled Receptors” (Cell Host & Microbe, 2019).
